SMILES strings stand for the structures. Only a part is listed here, and it is no random draw. Active and inactive are the calls of the source. Rule as the data show it: active = inhibition above about 45%; inactive = the rest.

By UniProt entry, the sequences of proteins in these tests, tags left out.
UniProt O95136, whole entry: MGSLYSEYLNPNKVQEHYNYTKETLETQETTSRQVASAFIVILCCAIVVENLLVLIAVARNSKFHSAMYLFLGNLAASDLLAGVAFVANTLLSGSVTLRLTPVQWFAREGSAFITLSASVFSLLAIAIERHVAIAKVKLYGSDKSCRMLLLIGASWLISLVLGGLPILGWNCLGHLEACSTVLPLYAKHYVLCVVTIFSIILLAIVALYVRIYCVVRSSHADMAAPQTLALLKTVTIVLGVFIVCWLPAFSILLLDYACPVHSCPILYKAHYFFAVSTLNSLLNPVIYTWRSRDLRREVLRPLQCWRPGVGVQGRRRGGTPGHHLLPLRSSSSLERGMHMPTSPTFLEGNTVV

This test addresses Sphingosine 1-phosphate receptor 2 (Homo sapiens) (UniProt O95136). Briefly: blockers of S1P2 receptor signalling – cell-based, primary screen (AID 736).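 Also: CRE beta-lactamase reporter cells expressing human S1P2 stimulated with S1P; 0% = agonist at EC80 alone and 100% = agonist plus reference antagonist.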 The conditions noted are these: cell-based S1P2 antagonist assay, at 5 µM, hits give high values.
Take `O=C(NCC1(N2CCOCC2)CCCCC1)c1cc(=O)[nH]c2ccccc12`: the inhibition is inactive: 11.5%.
The same measure for `N#CC1(Nc2ccccc2)CCN(CCc2ccccc2)CC1`: inactive: 15.8%.
On to `CN1CCC(Nc2cccc(F)c2)CC1`, for which the inhibition is inactive: 20.1%.
`O=C(OC1CN2CCC1CC2)C1c2ccccc2Oc2ccccc21` (stereo not given): the inhibition was inactive: 11.2%.
On to `O=C(NCC1(N2CCOCC2)CCCCC1)c1cc2ccccc2o1`, for which the inhibition is inactive: 9.92%.
The same measure for `COc1ccc(NC2CCN(CCc3ccccc3)CC2)c(OC)c1`: inactive: 7.84%; for `CCC(CO)(C(=O)OC1CN2CCC1CC2)c1ccccc1` (stereo not given): inactive: 12%.
`CCOc1ncccc1C(=O)NCC1(N2CCOCC2)CCCCC1`: the inhibition was inactive: -34.4%.
The same measure for `N/C(=N\O)c1c(N)no[n+]1[O-]`: inactive: 10.4%; for `c1ccc(CN2CCC(Nc3ccccc3)CC2)cc1`: inactive: 17.7%.

In general, inhibition refers to the change of the read-out against control, counted positive when it falls.
